# Experimental data reported in patent US20220265656A1, “COMBINATION THERAPIES WITH IRE1 SMALL MOLECULE INHIBITORS” (Cornell University, priority 2019, published 2022).
# The chains behind the UniProt entries cited, without tags or fusion partners. Residues count along the entry.
# UniProt O75460, 19-977 limits assumed: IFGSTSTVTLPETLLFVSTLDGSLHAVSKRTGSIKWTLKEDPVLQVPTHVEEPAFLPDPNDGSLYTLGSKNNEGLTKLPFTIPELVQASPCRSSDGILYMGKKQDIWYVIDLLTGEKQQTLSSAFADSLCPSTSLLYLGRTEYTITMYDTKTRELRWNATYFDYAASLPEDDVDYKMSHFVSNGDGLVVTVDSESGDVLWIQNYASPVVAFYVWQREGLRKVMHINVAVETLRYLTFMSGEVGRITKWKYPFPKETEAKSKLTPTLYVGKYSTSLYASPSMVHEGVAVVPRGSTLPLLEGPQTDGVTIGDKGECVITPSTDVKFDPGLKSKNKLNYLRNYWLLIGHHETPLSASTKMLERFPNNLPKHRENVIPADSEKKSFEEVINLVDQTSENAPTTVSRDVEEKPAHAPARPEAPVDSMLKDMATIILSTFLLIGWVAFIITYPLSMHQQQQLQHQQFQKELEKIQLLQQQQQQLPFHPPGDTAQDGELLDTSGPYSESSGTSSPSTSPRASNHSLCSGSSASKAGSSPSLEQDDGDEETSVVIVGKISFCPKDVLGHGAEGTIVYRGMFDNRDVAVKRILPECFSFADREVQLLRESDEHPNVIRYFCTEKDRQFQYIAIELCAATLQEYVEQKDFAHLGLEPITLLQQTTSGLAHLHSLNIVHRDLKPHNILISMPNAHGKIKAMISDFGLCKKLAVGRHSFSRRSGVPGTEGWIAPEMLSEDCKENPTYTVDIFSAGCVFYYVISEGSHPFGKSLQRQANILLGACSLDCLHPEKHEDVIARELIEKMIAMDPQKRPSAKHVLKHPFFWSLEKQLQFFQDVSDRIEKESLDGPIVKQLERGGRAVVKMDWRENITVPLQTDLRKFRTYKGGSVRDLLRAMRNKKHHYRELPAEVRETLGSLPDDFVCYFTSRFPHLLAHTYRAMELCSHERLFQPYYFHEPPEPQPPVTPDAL
# Biological target: IRE1a (Homo sapiens, UniProt O75460)
# Assay: In vitro FRET assay (IRE1a cleavage of XBP1 RNA probe)
# Conditions: read-out: Mean IC50, 2 nM IRE1a
# Experimental: In vitro FRET assay was performed to evaluate the ability of select compounds to inhibit IRE1, the results of which are summarized in Table 3. To perform the in vitro FRET assay, 1× complete assay buffer (CAB; […], 50 mM sodium citrate pH 7.15, 1 mM magnesium acetate, 0.02% tween 20) was used to dilute SignalChem IRE1a protein to a final concentration of 2 nM. Selected compounds were serially diluted with DMSO in a non-binding black 384-well plate for a total of 15 ul in each well, 2 ul of the serially diluted compound or DMSO control were then added to new wells containing 98 ul of 1×CAB, for a total volume of 100 ul, 10 ul of which were then transferred to wells of a new plate, 5 ul of the diluted IRE1a was then added to each well, 5 ul of a […] XBP1 RNA probe was then added to each well. Fluorescence was then read over 30 minutes in kinetic mode (485/515 nm).
# Two RNA probes were used, XBP1 wildtype (SEQ ID NO: 2) which is able to be spliced by active IRE1a or XBP1 mutant (SEQ ID NO: 3) which is unable to be spliced. Each probe contained a 5′ 6-FAM modification and a 3′ IOWA Black FQ modification. […]
row,SMILES,IC50
1,"CCc1cc(-c2ccc(NS(=O)(=O)c3ccccc3Cl)c(F)c2)cc2cnc(N[C@H]3CC4C[C@H](N)CC4C3)nc12 (single isomer, unassigned) [82; Formic Acid Salt]",< 5 nM
2,"CCc1cc(-c2ccc(NS(=O)(=O)c3ccccc3Cl)nc2C)cc2cnc(N[C@H]3CC[C@H](N(C)C)CC3)nc12 [Compound 91, 2-chloro-N-(5-(2-(((1r,4r)-4-(dimethylamino)cyclohexyl)amino)-8-ethylquinazolin-6-yl)-6-methylpyridin-2-yl)benzenesulfonamide]",< 5 nM

# Same assay, conditions: read-out: Mean IC50, 2 nM IRE1a, tested form: formate
row,SMILES,IC50
1,CCc1cc(-c2ncc(NS(=O)(=O)c3ccccc3Cl)nc2OC)cc2cnc(N[C@H]3CC[C@H](N(C)C)CC3)nc12,< 5 nM
2,CCc1cc(-c2ccc(NS(=O)(=O)c3ccccc3Cl)nc2C)cc2cnc(N[C@H]3CC[C@H](N(C)CC)CC3)nc12,< 5 nM
3,COc1nc(NS(=O)(=O)c2ccccc2Cl)ccc1-c1cc(C(C)(F)F)c2nc(N[C@H]3CC[C@H](N(C)C)CC3)ncc2c1,< 5 nM
4,CCc1cc(-c2cc(F)c(NS(=O)(=O)c3ccccc3Cl)nc2C)cc2cnc(N[C@H]3CC[C@H](N(C)C)CC3)nc12,< 5 nM
5,CCc1cc(-c2ccc(NS(=O)(=O)c3ccccc3Cl)nc2OC)cc2cnc(N[C@H]3CC[C@H](NC)CC3)nc12,< 5 nM
6,CCc1cc(-c2ccc(NS(=O)(=O)c3ccccc3Cl)nc2C)cc2cnc(N[C@H]3CC[C@H](NC)CC3)nc12,< 5 nM
7,COc1nc(NS(=O)(=O)c2ccccc2Cl)ccc1-c1cc2cnc(N[C@H]3CC[C@H](N(C)C)CC3)nc2cc1C,< 5 nM
8,CCc1cc(-c2ccc(NS(=O)(=O)c3ccccc3C)nc2OC)cc2cnc(N[C@H]3CC[C@H](NC)CC3)nc12,< 5 nM

# Where a name gives a salt, the structure may show the parent alone.
